Measured values from PubChem BioAssay AID652017 (The Scripps Research Institute Molecular Screening Center, 2013).
The entries are a selection whose mix differs from that of the whole data set. The source made the active and inactive calls. Rule as the data show it: active = activation above about 7.8%; inactive = the rest.

Experiment: SMARCA2 (BRM) function activators, primary screen, cell-based, luminescence, high throughput (AID 652017);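 also: 0% = vehicle wells and 100% = reference activator wells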
Details: MG213 cells, MMTV-luciferase reporter, dexamethasone, overnight; at 9.1 µM; hits give high values

SMILES	activation
O=C1CCN(Cc2ccccc2)CC1	inactive: 0.79%
CC(C)(C)n1nnnc1C(c1ccccc1)N1CCC(n2c(=O)[nH]c3ccccc32)CC1 (stereo not given)	inactive: -4.61%
CCOc1ccc(C)cc1CN(CCCl)CCCl	inactive: -0.11%
COc1ccc(NC2CCN(CCc3ccccc3)CC2)c(OC)c1	inactive: 0.73%
CCOC(=O)N1CCC(Nc2ccc(F)cc2)CC1	inactive: -3.46%
O=P1(N(CCCl)CCCl)SCCCS1	inactive: -2.01%
CCCCn1nnnc1C(c1cc2ccccc2o1)N1CCC(n2c(=O)[nH]c3ccccc32)CC1 (stereo not given)	inactive: -5.6%
CCCCOc1ccc(C(=O)NCC2(N3CCOCC3)CCCCC2)cc1	inactive: -3.17%
O=C(NCC1(N2CCCCC2)CCCCC1)c1ccc(F)cc1	inactive: -1.4%
O=c1[nH]c2ccccc2n1C1CCN(C(c2ccccc2)c2nnnn2C2CCCCC2)CC1 (stereo not given)	inactive: -2.38%
CCOC(=O)N1CCC(Nc2cccc(C)c2)CC1	inactive: -1.45%
COc1cc(C(=O)NCC2(N(C)C)CCCCC2)ccc1OC(F)F	inactive: -2.04%
O=c1[nH]c2ccccc2n1C1CCN(C(c2cccc3ccccc23)c2nnnn2C2CCCC2)CC1 (stereo not given)	inactive: -4.41%
CC(C)(C)OC(=O)N1CCC(N(C(=O)c2ccccc2)c2ccc(F)cc2)CC1	inactive: -2.5%
COc1ccc(C(=O)NCC2(N3CCCCC3)CCCCC2)c(OC)c1OC	inactive: -3.28%
CCC(c1nnnn1C1CCCC1)N1CCC(n2c(=O)[nH]c3ccccc32)CC1 (stereo not given)	inactive: -4.67%
COc1ccc(C(=O)NCC2(N3CCCCC3)CCCCC2)cc1	inactive: -0.44%
O=C(NCC1(N2CCCCC2)CCCCC1)c1cccs1	inactive: -0.96%
CCCCn1nnnc1C(CC)N1CCC(n2c(=O)[nH]c3ccccc32)CC1 (stereo not given)	inactive: -4.7%
CCCCn1nnnc1C(c1cccs1)N1CCC(n2c(=O)[nH]c3ccccc32)CC1 (stereo not given)	inactive: -3.29%
O=C(NCC1(N2CCCCC2)CCCCC1)c1ccc(=O)[nH]c1	inactive: -1.87%
Cc1cccc(NC2(C#N)CCN(Cc3ccccc3)CC2)c1	inactive: -7.71%

SMILES	activation
CSc1ccccc1C(=O)NCC1(N2CCCCC2)CCCCC1	inactive: 4.13%
Cc1cc(C)cc(N(C(=O)c2ccccc2)C2CCN(C(=O)OC(C)(C)C)CC2)c1	inactive: 3.63%
O=C(NCC1(N2CCCCC2)CCCCC1)c1ccc(Cl)nc1	inactive: -2.39%
O=c1[nH]c2ccccc2n1C1CCN(C(c2ccccc2OC(F)(F)F)c2nnnn2C2CCCCC2)CC1 (stereo not given)	inactive: -0.15%
O=C(NCC1(N2CCOCC2)CCCCC1)c1cc2ccccc2o1	inactive: 0.25%
COc1ccc(Cl)cc1C(=O)NCC1(N2CCOCC2)CCCCC1	inactive: 4.59%
N#CC1(Nc2ccccc2)CCN(Cc2ccccc2)CC1	inactive: -2.85%
O=C(NCC1(N2CCCCC2)CCCCC1)c1ccc(Cl)s1	inactive: -4.98%
O=C(OC1CN2CCC1CC2)C1c2ccccc2Oc2ccccc21 (stereo not given)	inactive: 1.08%
O=c1[nH]c2ccccc2n1C1CCN(C(c2cc3ccccc3o2)c2nnnn2C2CCCCC2)CC1 (stereo not given)	inactive: -4.44%
CCCCn1nnnc1C(c1ccc(OC)cc1)N1CCC(n2c(=O)[nH]c3ccccc32)CC1 (stereo not given)	inactive: -2.97%
CCOC(=O)N1CCC(Nc2ccc(OC)cc2)CC1	inactive: -3.27%
CC(C)c1ccc(NC2CCN(C(=O)OC(C)(C)C)CC2)cc1	inactive: -1.83%
CN(C)c1cccc(C(=O)NCC2(N3CCCCC3)CCCCC2)c1	inactive: -1.85%
COc1ccc(CN(CCCl)CCCl)cc1Cl	inactive: -2.79%
COC(=O)C1(Nc2ccccc2)CCN(Cc2ccccc2)CC1	inactive: -2.17%
CCC(c1nnnn1C(C)(C)C)N1CCC(n2c(=O)[nH]c3ccccc32)CC1 (stereo not given)	inactive: -3.01%
O=C(NCC1(N2CCOCC2)CCCCC1)c1cc(F)c(F)cc1Cl	inactive: -1.5%
COc1cc(OC)c(C(=O)NCC2(N(C)C)CCCCC2)cc1OC	inactive: -0.51%
CCCCn1nnnc1C(c1ccnc2ccccc12)N1CCC(n2c(=O)[nH]c3ccccc32)CC1 (stereo not given)	inactive: -3.83%
CN1CCC(Nc2cccc(F)c2)CC1	inactive: -2.25%
O=C(NCC1(N2CCCCC2)CCCCC1)c1cncc(Br)c1	inactive: 0.61%

SMILES	activation
COc1ccc(C(c2nnnn2C2CCCC2)N2CCC(n3c(=O)[nH]c4ccccc43)CC2)cc1 (stereo not given)	inactive: -0.04%
CCCOc1ccc(C(=O)NCC2(N(C)C)CCCCC2)cc1OC	inactive: -0.13%
Cc1ccc(C(=O)NCC2(N(C)C)CCCCC2)o1	inactive: 1.23%
O=C(NCC1(N2CCCCC2)CCCCC1)c1ccc(OC(F)F)cc1	inactive: -1.13%
CC(C)(C)n1nnnc1C(c1ccccc1OC(F)(F)F)N1CCC(n2c(=O)[nH]c3ccccc32)CC1 (stereo not given)	inactive: -6.47%
O=c1[nH]c2ccccc2n1C1CCN(C(c2ccccc2OC(F)(F)F)c2nnnn2C2CCCC2)CC1 (stereo not given)	inactive: -4.56%
N#CC1(Nc2ccccc2)CCN(CCc2ccccc2)CC1	inactive: -0.71%
CCN1CCC(Nc2ccc(Cl)cc2)CC1	inactive: -0.19%
CSc1ccc(C(=O)NCC2(N3CCOCC3)CCCCC2)cc1	inactive: -2.01%
O=C(NCC1(N2CCCCC2)CCCCC1)c1cccc([N+](=O)[O-])c1	inactive: -1.43%
O=C(NCC1(N2CCCCC2)CCCCC1)c1cccc(C(F)(F)F)c1	inactive: 2.4%
COc1cc(C(=O)NCC2(N3CCCCC3)CCCCC2)ccc1OC(F)F	inactive: -1.52%
O=C(NCC1(N2CCOCC2)CCCCC1)c1cc(=O)[nH]c2ccccc12	inactive: 0.32%
CN1CCN(CCOC(=O)C(O)(c2ccccc2)c2ccccc2)CC1	inactive: 0.09%
CC(C)c1ccc(C(=O)NCC2(N3CCOCC3)CCCCC2)cc1	inactive: -0.98%
COc1ccc(NC2CCN(C(=O)OC(C)(C)C)CC2)cc1	inactive: -3.01%
CCCCn1nnnc1C(c1cccc2ccccc12)N1CCC(n2c(=O)[nH]c3ccccc32)CC1 (stereo not given)	inactive: -0.86%
N#Cc1ccc(C(=O)NCC2(N3CCCCC3)CCCCC2)cc1	inactive: -1.96%
CC(C)(C)OC(=O)N1CCC(N(C(=O)c2ccccc2)c2ccc(Cl)cc2)CC1	inactive: 5.33%
CN(C)C1(CNC(=O)c2cccc(C#N)c2)CCCCC1	inactive: -2.01%
Cc1cc(N(CCCl)CCCl)ccc1C=O	inactive: 0.62%
O=c1[nH]c2ccccc2n1C1CCN(C(c2ccccc2)c2nnnn2C2CCCC2)CC1 (stereo not given)	inactive: -3.76%

SMILES	activation
CCCN1CCC(Nc2cc(OC)cc(OC)c2)CC1	inactive: -1.45%
C/C(N)=N\P(=O)(Oc1ccccc1)Oc1ccccc1	inactive: 4.57%
c1ccc(CN2CCC(Nc3ccccc3)CC2)cc1	inactive: -3.72%
CC(C)(C)n1nnnc1C(c1cccc2ccccc12)N1CCC(n2c(=O)[nH]c3ccccc32)CC1 (stereo not given)	inactive: -7.44%
COc1cc(C(=O)NCC2(N3CCOCC3)CCCCC2)cc(OC)c1C	inactive: -3.2%
CCCCn1nnnc1C(c1ccccc1)N1CCC(n2c(=O)[nH]c3ccccc32)CC1 (stereo not given)	inactive: 0.38%
O=C(NCC1(N2CCOCC2)CCCCC1)c1cc(Br)ccc1Cl	inactive: -1.95%
NC(=O)C1(Nc2ccccc2)CCN(Cc2ccccc2)CC1	inactive: 3.5%
O=c1[nH]c2ccccc2n1C1CCN(C(c2cccs2)c2nnnn2C2CCCCC2)CC1 (stereo not given)	inactive: -4.56%
O=c1[nH]c2ccccc2n1C1CCN(C(c2ccnc3ccccc23)c2nnnn2C2CCCC2)CC1 (stereo not given)	inactive: 0.12%
COc1ccc(C(=O)NCC2(N3CCOCC3)CCCCC2)cc1OC	inactive: 2.66%
CCOC(=O)N1CCC(Nc2ccc(C)cc2)CC1	inactive: -0.38%
COc1cccc(C(c2nnnn2C(C)(C)C)N2CCC(n3c(=O)[nH]c4ccccc43)CC2)c1OC (stereo not given)	inactive: 0.54%
N/C(=N\O)c1c(N)no[n+]1[O-]	inactive: 1.43%
O=c1[nH]c2ccccc2n1C1CCN(C(c2cccs2)c2nnnn2C2CCCC2)CC1 (stereo not given)	inactive: -1.57%
O=C(OC1CN2CCC1CC2)C1c2ccccc2C=Cc2ccccc21 (stereo not given)	inactive: -2.42%
CCCCn1nnnc1C(c1cccc(OC)c1OC)N1CCC(n2c(=O)[nH]c3ccccc32)CC1 (stereo not given)	inactive: -2.45%
CN1CCC(Nc2ccc(F)c(Cl)c2)CC1	inactive: -0.52%
CCOc1ncccc1C(=O)NCC1(N2CCOCC2)CCCCC1	inactive: -2.86%
O=C(O)C1(Nc2ccccc2)CCN(Cc2ccccc2)CC1	inactive: -0.82%
NN(c1ccccc1)C1CCN(CCc2ccccc2)CC1	inactive: 2.35%
CC(C)(C)OC(=O)N1CCC(Nc2ccccc2)CC1	inactive: -4.48%

SMILES	activation
O=c1[nH]c2ccccc2n1C1CCN(C(c2cc3ccccc3o2)c2nnnn2C2CCCC2)CC1 (stereo not given)	inactive: -6.26%
CCCOc1ccc(C(=O)NCC2(N(C)C)CCCCC2)cc1	inactive: -3.48%
COc1cccc(C(c2nnnn2C2CCCC2)N2CCC(n3c(=O)[nH]c4ccccc43)CC2)c1OC (stereo not given)	inactive: -4.58%
COc1cc(OC)cc(C(=O)NCC2(N3CCOCC3)CCCCC2)c1	inactive: 3.4%
COc1cccc(C(=O)N(c2cc(C)cc(C)c2)C2CCN(C(=O)OC(C)(C)C)CC2)c1	inactive: 2.41%
CCC(CO)(C(=O)OC1CN2CCC1CC2)c1ccccc1 (stereo not given)	inactive: 1.01%
CN1CCC(Nc2ccc(Cl)cc2)CC1	inactive: -2.57%
CCC(c1nnnn1C1CCCCC1)N1CCC(n2c(=O)[nH]c3ccccc32)CC1 (stereo not given)	inactive: -3.08%
COc1cccc(C(c2nnnn2C2CCCCC2)N2CCC(n3c(=O)[nH]c4ccccc43)CC2)c1OC (stereo not given)	inactive: -4.63%
CC(=O)N(c1ccccc1)C1CCNCC1	inactive: -2.55%
COc1cc(OC)cc(C(=O)NCC2(N3CCCCC3)CCCCC2)c1	inactive: -2.41%
O=c1[nH]c2ccccc2n1C1CCN(C(c2ccnc3ccccc23)c2nnnn2C2CCCCC2)CC1 (stereo not given)	inactive: -3.47%
Fc1ccccc1NC1CCN(Cc2ccccc2)CC1	inactive: 4.1%
Cc1ccc(C(=O)NCC2(N3CCCCC3)CCCCC2)o1	inactive: -3.12%
Cc1ccc(NC2(C#N)CCN(Cc3ccccc3)CC2)cc1	inactive: 1.1%
CCN1CCC(Nc2cccc(F)c2)CC1	inactive: 3.21%
COc1ccc(C(c2nnnn2C2CCCCC2)N2CCC(n3c(=O)[nH]c4ccccc43)CC2)cc1 (stereo not given)	inactive: 0.95%
CC(C)(C)n1nnnc1C(c1ccnc2ccccc12)N1CCC(n2c(=O)[nH]c3ccccc32)CC1 (stereo not given)	inactive: -6.27%
Cc1ccccc1NC1(C#N)CCN(Cc2ccccc2)CC1	inactive: -1.2%
CN(C)c1ccc(C(=O)NCC2(N3CCCCC3)CCCCC2)cc1	inactive: -1.19%
Cn1c(=O)[nH]cc(N(CCCl)CCCl)c1=O	inactive: -3.82%
O=C(NCC1(N2CCCCC2)CCCCC1)c1ccco1	inactive: 3.18%
